Screens: PubChem BioAssay, National Center for Advancing Translational Sciences (NCATS)
Nrf2 activator: activates Nrf2 signaling; AREc32 ARE-luciferase reporter (MCF7-derived line), luminescence, 24 h; Potency, µM (top dose mostly 46.1 µM), inactives show at the top dose activation, actives largely listed as activators; 0.31% of 410,000 active; further: potency means the concentration at half of the fitted maximal effect; % of control where 0% means no effect; nearly all actives have a fitted effect of over 65% in size
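Luminescent ARE reporter assay in AREc32_Fluc cells: overnight plating at 37 deg C, 24 hr compound incubation, Steady-Glo added, 30 min RT before reading.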
ClpP mod: qHTS Assay for Activators of ClpP; ATP-dependent Clp protease proteolytic subunit (Bacillus subtilis (strain 168)), P80244; purified B. subtilis ClpP, FRET peptide cleavage, 20 min; Potency, µM (highest dose often 57.5 µM), for the others: top-dose activity change, negative = active; 1.9% of 340,000 active; active means well fitted falling curve with a large enough effect; inconclusive means small, poorly fitted or top-dose-only effect; inactive means no such curve, though single readings can be large or run the other way; further: potency means the concentration at half of the fitted maximal effect; the source files actives as falling curves though it sought activators and does not explain the sign; nearly all actives have a fitted effect of over 65% in size
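FRET quenching reversal measured ClpP activation: 10 microg/mL B. subtilis ClpP at pH 8 with the FRET-FV decapeptide, read at 430 nm after 320 nm excitation. The 20-min minus 0-min signal was scaled between DMSO/no-enzyme wells and ADEP (5.8 microM final).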
miR-21 reporter: miR-21 reporter, rising signal | 340,000 tested, under 10 active | AID 2288 | HeLa miR-21 FLuc reporter, luciferase, 48 h | Potency, µM (titrated, usually from 38.3 µM), for inactives: at the highest dose reporter change, positive = more light; active = well fitted rising curve with a large enough effect; inconclusive = small, poorly fitted or top-dose-only effect; inactive = no such curve, though single readings can be large or run the other way;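 further: % of control where 0% means no effect; miR-21 action dims this reporter so a rising signal means less miR-21 action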
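Compounds were titrated across several concentrations (up to approximately 40 uM) and incubated 48 hours with HeLa miR-21-FLuc reporter cells (miR-21 target sequence downstream of FLuc, endogenous miR-21). Readout was firefly luciferase luminescence after lytic detection reagent.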
Nrf2 block: inhibitors of Nrf2 signaling; AID 504444; Potency, µM (series often up to 46 µM), for inactives: at the highest dose activity change, negative = inhibition, usual class: inhibitors; 2.1% of 360,000 active; A549 ARE-Fluc reporter, luciferase luminescence, 18-24 h; further: potency means the concentration at half of the fitted maximal effect; on the % scale 0 is the no-effect control and ±100 the full control effect; nearly all actives have a fitted effect of over 60% in size
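Reporter: ARE-Fluc in A549. Exposure: 18-24 h, 37 °C, 5% CO2, 5% FBS OPTI-MEM. Readouts: fluorescent cytotoxicity (CellTiter-Fluor), then luminescent Nrf2 signal after BugLite.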
A549 tox: kills or reduces viability of A549 cells in Nrf2 counter-screen; A549 ARE-Fluc cells, CellTiter-Fluor viability, 18-24 h; Potency, µM (series often up to 46 µM), inactives show at the top dose activity change, negative = cytotoxicity, most hits filed as inhibitors; 0.16% of 390,000 active; AID 504648; further: potency means the concentration at half of the fitted maximal effect; on the % scale 0 is the no-effect control and ±100 the full control effect
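Cytotoxicity counterscreen: CellTiter-Fluor fluorescence was measured in A549 ARE_Fluc cells after 18-24 h of compound exposure in a concentration series. The subsequent BugLite luminescent read reports ARE-luciferase activity.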
p53 reactivator: mutant p53 re-activation in reporter cells; Potency, µM (titrated, usually from 92.2 µM), inactives show at the top dose activity change, positive = activation, usual class: activators; H1299 p53-A138V BP100-luciferase reporter, luminescence, 24 h; 0.063% of 320,000 active; further: potency means the concentration at half of the fitted maximal effect; % of control where 0% means no effect; nearly all actives have a fitted effect of over 45% in size
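H1299 (p53-null), stable ts p53-A138V + BP100-Luc; 1000 cells/well, Opti-MEM/10% FBS; cpd 4 pt, 1:5; 24 h, 37 deg C, 5% CO2; detection reagent 10 min RT; luminescence.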
Active calls of the source: *; u = inconclusive; x = not tested or not shown; [ ] = another dose, or the depositor's remark. An excerpt weighted towards active compounds, which were near 3.7% of everything screened. Unless noted, the call rests on the fitted dose curve; in most records, active means well fitted curve in the direction sought with a large enough effect; inconclusive means small, poorly fitted or top-dose-only effect, or another doubt; inactive means no such curve, though single readings can be large; an effect the other way counts as inactive or inconclusive.

No. | SMILES | Nrf2 activator | ClpP mod | miR-21 reporter
1 | Cc1ccc(C)c(Cn2c3ccccc3c3cnn(CC(=O)NC4CCCCCC4)c(=O)c32)c1 | -1.1% | -8.7% | -0.1%
2 | O=C(COC(=O)Cc1cccs1)NCc1ccc(F)cc1 | -0.4% | 0.9% | -0.6%
3 | CCC1(C)Cc2c(sc3nnn(Cc4ccccc4Cl)c(=O)c23)CO1 (stereo not given) | -0.6% | -0.5% | -4.9%
4 | CCC1(C)Cc2c(sc3nnn(CC(=O)Nc4ccccc4)c(=O)c23)CO1 (stereo not given) | -0.1% | -2.9% | -3.0%
5 | CCC1(C)Cc2c(sc3nc(NC)n(C)c(=O)c23)CO1 (stereo not given) | 2.7% | 14.1µM* | -9.1%
6 | Cc1nc2cc(-c3cccc(F)c3)nn2c(N2CCN(C(=O)c3ccco3)CC2)c1C | 12.6µM* | -4.1% | -44.8%
7 | Cc1ccc(NC(=O)CCc2c(C)nc3cc(-c4ccccc4)nn3c2C)cc1F | -3.2% | 28.2µM* | 28.6%
8 | CCOc1ccc(CCNC(=O)CCc2c(C)nc3cc(-c4ccccc4OC)nn3c2C)cc1 | -2.3% | 4.0% | u

No. | Nrf2 block | A549 tox | p53 reactivator
1 | 21.3% | 2.9% | x
2 | -6.0% | -6.8% | 6.8%
3 | 14.6µM* | -14.2% | 6.5%
4 | u | -16.3% | -10.4%
5 | -5.4% | 0.4% | 9.5%
6 | 14.0% | -1.2% | u
7 | u | 0.9% | x
8 | 14.6µM* | -4.5% | x

Going on with the list.
No. | SMILES | Nrf2 activator | ClpP mod | miR-21 reporter
9 | Cc1nc2cc(-c3cccc(F)c3)nn2c(C)c1CCC(=O)NC(C)CCc1ccco1 (stereo not given) | 1.2% | -20.5% | u
10 | COc1cc(OC)cc(-c2cc3nc(C)c(CCC(=O)NC(C)CCc4ccco4)c(C)n3n2)c1 (stereo not given) | -0.4% | -3.5% | 18.4%
11 | COc1cc2ncnc(N3CCN(C(=O)Nc4ccc(Oc5ccccc5)cc4)CC3)c2cc1OC | x | -4.4% | x
12 | Cc1nc2cc(-c3ccccc3)nn2c(C)c1CCC(=O)N1CCN(c2ccc(F)cc2)CC1 | -2.2% | -16.4% | 26.9%
13 | CC(=O)c1ccc(NC(=O)CCc2c(C)nc3cc(-c4ccc(Cl)cc4)nn3c2C)cc1 | -2.7% | u | -0.2%
14 | CCN(CC)S(=O)(=O)c1ccc(NC(=O)CCc2c(C)nc3cc(-c4ccc(Cl)cc4)nn3c2C)cc1 | -3.0% | 15.8µM* | u
15 | CC(C)(C)OC(=O)NC(Cc1ccccc1)C(=O)NC1COC2CC(n3ccc(=O)[nH]c3=O)OC12 (stereo not given) | x | x | x
16 | Oc1c(N=Nc2ccccc2)sc2ccccc12 | 2.82µM* | -0.6% | -11.3%

No. | Nrf2 block | A549 tox | p53 reactivator
9 | 0.82µM* | 0.3% | -9.5%
10 | u | 1.1% | -27.8%
11 | x | x | x
12 | 5.17µM* | -4.8% | x
13 | u | -2.3% | x
14 | u | -10.3% | x
15 | 18.7% | -2.7% | x
16 | 21.4% | 7.3% | 11.1%

More compounds:
No. | SMILES | Nrf2 activator | ClpP mod | miR-21 reporter
17 | CC(=Nc1ccc(O)cc1)c1sc2ccccc2c1O | u | -3.5% | -37.0%
18 | COC(=O)C1(C(=O)OC)C[C@H](/C=C/c2ccccc2)N(Cc2ccccc2OC)[C@@H]1c1ccccc1 | x | -2.4% | x
19 | COCCN(CCOC)c1ncnc2c1c(-c1ccccc1)cn2-c1ccc(C)c(Cl)c1 | 7.0% | 28.2µM* | -0.7%
20 | COc1ccc(CNc2ncnc3c2c(-c2ccccc2)cn3-c2ccc(C)c(Cl)c2)cc1 | -0.3% | u | 3.0%
21 | Fc1ccc(-n2cc(-c3ccccc3)c3c(NCCc4ccccc4)ncnc32)cc1 | 5.2% | 31.6µM* | -8.5%
22 | COc1ccc(CCNc2ncnc3c2c(-c2ccccc2)cn3-c2ccc(F)cc2)cc1OC | 0.2% | u | 17.3%
23 | COc1ccccc1-c1cnn2c(NCCc3ccccc3)cc(C)nc12 | 6.2% | x | -58.4%
24 | COc1ccc(CCNc2ncnc3c2c(-c2ccccc2)cn3-c2ccc(Cl)cc2)cc1OC | -0.5% | 22.4µM* | 1.1%

No. | Nrf2 block | A549 tox | p53 reactivator
17 | u | -25.1% | u
18 | x | x | x
19 | x | 18.6% | x
20 | x | 14.2% | x
21 | x | 19.2% | x
22 | x | -16.8% | x
23 | u | 2.3% | u
24 | x | 1.2% | x

Next compounds.
No. | SMILES | Nrf2 activator | ClpP mod | miR-21 reporter
25 | COc1ccc(CCNc2cc(C)nc3c(-c4ccccc4)cnn23)cc1OC | 4.1% | 28.2µM* | -10.7%
26 | CN(C)c1ncnc2sc(-c3ccccc3)cc12 | u | 3.4% | -77.4%
27 | CN(C)c1ncnc2c1C(c1ccccc1)C(C)(C)O2 (stereo not given) | -0.6% | 31.6µM* | x
28 | O=c1[nH]c2ccccc2nc1NCc1ccccc1 | 5.5% | x | -36.3%
29 | CC1=NN(c2ccccc2)C(=O)/C1=C/N(C)C | -0.2% | -1.0% | -8.9%
30 | CC1=NN(c2nc3ccccc3[nH]2)C(=O)C1Cc1ccccc1 (stereo not given) | 7.1% | x | u
31 | CC1=NN(c2nc3ccccc3[nH]2)C(=O)/C1=C/N(C)C | -0.4% | 3.0% | 23.3%
32 | O=S1(=O)Nc2c(cc(Cl)c3ccc(Cl)nc23)-c2ccccc21 | x | x | x

No. | Nrf2 block | A549 tox | p53 reactivator
25 | u | 5.5% | u
26 | 8.7% | 2.9% | -6.4%
27 | -7.0% | -4.1% | x
28 | 1.7% | 0.2% | x
29 | -2.1% | 0.4% | -0.1%
30 | 23.1µM* | -27.2% | u
31 | 18.4µM* | -2.6% | -2.1%
32 | 19.2% | -3.2% | x

Four entries picked at random from those above:
No. | SMILES | Nrf2 activator | ClpP mod | miR-21 reporter
30 | CC1=NN(c2nc3ccccc3[nH]2)C(=O)C1Cc1ccccc1 (stereo not given) | 7.1% | x | u
29 | CC1=NN(c2ccccc2)C(=O)/C1=C/N(C)C | -0.2% | -1.0% | -8.9%
31 | CC1=NN(c2nc3ccccc3[nH]2)C(=O)/C1=C/N(C)C | -0.4% | 3.0% | 23.3%
26 | CN(C)c1ncnc2sc(-c3ccccc3)cc12 | u | 3.4% | -77.4%

No. | Nrf2 block | A549 tox | p53 reactivator
30 | 23.1µM* | -27.2% | u
29 | -2.1% | 0.4% | -0.1%
31 | 18.4µM* | -2.6% | -2.1%
26 | 8.7% | 2.9% | -6.4%

(next part)
No. | SMILES | Nrf2 activator | ClpP mod | miR-21 reporter
33 | Cc1ccc2ccc3c(c2n1)NS(=O)(=O)c1ccc(C(F)(F)F)cc1-3 | x | x | x
34 | CCc1ccc(CNC(=O)Cn2nc(-c3ccc(Cl)cc3)ccc2=O)cc1 | 1.9% | -20.7% | -3.4%
35 | CC(C)CC(=O)Nc1ccc(C(=O)NNC(=S)NC(=O)C2CCCCC2)cc1 | -0.8% | 13.5% | -0.1%
36 | Cc1ccc(CSC2=Nc3ccccc3C3=NC(CCC(=O)NC4CCCCC4)C(=O)N23)cc1 (stereo not given) | 4.6% | -1.9% | -10.1%
37 | NC(=S)n1[nH]c(-c2ccc([N+](=O)[O-])cc2)c(N=Nc2cccc([N+](=O)[O-])c2)c1=O | 3.5%[9.22 µM] | x | -1.8%
38 | NC(=S)n1[nH]c(-c2ccc([N+](=O)[O-])cc2)c(N=Nc2ccccc2[N+](=O)[O-])c1=O | 10.5% | 2.9% | 2.0%
39 | Cc1c(N=Nc2c(-c3ccc([N+](=O)[O-])cc3)[nH]n(C(N)=S)c2=O)cccc1[N+](=O)[O-] | 2.9% | x | -3.3%
40 | COC(=O)c1ccc(NS(=O)(=O)c2ccc3c(c2)n(C)c(=O)c(=O)n3C)cc1 | 0.5% | u | -1.8%
41 | Cc1cccc(Oc2sc(C(=O)c3ccccc3)c(N)c2C#N)c1 | u | 14.1µM* | 16.2%
42 | O=C(C1CCC(Cn2c(=S)[nH]c3ccccc3c2=O)CC1)N1CCN(c2ccccc2)CC1 (stereo not given) | -0.6% | -3.1% | x

No. | Nrf2 block | A549 tox | p53 reactivator
33 | 8.2µM* | 7.31µM* | x
34 | x | -4.8% | x
35 | 8.2µM* | 2.4% | 4.3%
36 | x | u | x
37 | 16.4µM* | u | 0.6%
38 | 12.9% | 5.6% | u
39 | 18.4µM* | u | -2.3%
40 | u | -2.4% | x
41 | x | -6.1% | -6.1%
42 | u | -7.1% | x
